The assay deals with P2X purinoceptor 1 (Rattus norvegicus, UniProt P47824). Kind of assay: Antagonist activity at rat P2X1 receptor.

By UniProt entry, the sequences of proteins in these tests, tags left out. Where a name states a change or a piece, a line headed by the entry shows the natural chain unless it says otherwise.
UniProt P47824: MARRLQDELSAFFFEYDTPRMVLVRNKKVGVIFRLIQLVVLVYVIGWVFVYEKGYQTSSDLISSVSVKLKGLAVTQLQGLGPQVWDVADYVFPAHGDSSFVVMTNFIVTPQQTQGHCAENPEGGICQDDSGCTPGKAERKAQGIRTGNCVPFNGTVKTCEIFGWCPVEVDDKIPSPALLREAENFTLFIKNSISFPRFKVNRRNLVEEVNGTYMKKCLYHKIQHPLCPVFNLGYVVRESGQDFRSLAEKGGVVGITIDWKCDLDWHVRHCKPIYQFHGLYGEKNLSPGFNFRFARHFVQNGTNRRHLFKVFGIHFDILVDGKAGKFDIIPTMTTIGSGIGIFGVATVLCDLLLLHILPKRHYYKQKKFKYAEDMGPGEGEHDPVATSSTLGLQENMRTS

By IC50 is commonly meant the midpoint of a concentration-inhibition curve. `Nc1ncnc2c1ncn2[C@@H]1O[C@H](COP(=O)(O)OP(=O)(O)OP(=O)(O)O)[C@H]2OC3(O[C@H]21)C([N+](=O)[O-])=CC([N+](=O)[O-])C=C3[N+](=O)[O-]` (stereo partly specified) showed an IC50 of 6 nM.

For the origin of these results see ChEMBL document CHEMBL4613266, “Discovery and Structure Relationships of Salicylanilide Derivatives as Potent, Non-acidic P2X1 Receptor Antagonists” (J Med Chem, 2020).
